{"source": "paper PMC8389807", "about": "(Journal of Medicinal Chemistry, 2021)", "system": "MT-4 cells", "data": [{"substance": "dextran sulfate-5000 [DS-5000]", "values": [{"measurement": "CC50", "value": "> 20", "unit": "µM"}]}]}
